Test results taken from PMC11985910 (Nature Communications, 2025).

Protein sequences, listed by entry. Tags and fused reporters are not part of them. Residues count along the entry.
UniProt P05164, 279-745: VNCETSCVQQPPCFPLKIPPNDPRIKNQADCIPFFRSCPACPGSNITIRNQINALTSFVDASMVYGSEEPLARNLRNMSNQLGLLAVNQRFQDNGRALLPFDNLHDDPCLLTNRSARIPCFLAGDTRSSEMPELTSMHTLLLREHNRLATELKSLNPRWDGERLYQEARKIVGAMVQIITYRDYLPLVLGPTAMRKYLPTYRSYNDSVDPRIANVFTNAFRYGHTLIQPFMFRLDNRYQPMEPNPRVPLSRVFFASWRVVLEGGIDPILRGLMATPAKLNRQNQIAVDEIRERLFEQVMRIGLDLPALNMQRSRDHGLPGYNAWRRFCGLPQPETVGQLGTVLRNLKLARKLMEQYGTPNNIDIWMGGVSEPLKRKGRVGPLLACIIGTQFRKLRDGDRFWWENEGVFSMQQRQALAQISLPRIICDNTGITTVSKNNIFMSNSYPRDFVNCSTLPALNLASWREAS
UniProt P05164, 165-273: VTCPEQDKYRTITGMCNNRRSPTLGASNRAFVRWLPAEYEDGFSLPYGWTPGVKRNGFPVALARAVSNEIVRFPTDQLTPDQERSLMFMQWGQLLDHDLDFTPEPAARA

Columns and labels:
[1] = target: T1, MPO (Homo sapiens, UniProt P05164); assay: MPO-catalysed H2O2 consumption, H2O2-specific electrode; format: biochemical
[2] = target: T1, MPO; assay: MPO chlorination assay; format: biochemical

IC50 [1]: 630 nM
IC50 [2]: 1230 nM
SMILES: COc1ccc(Cl)cc1-c1cc(=O)[nH]c(=S)n1CC(N)=O [PF06282999, 2-(6-(5-Chloro-2-methoxyphenyl)-4-oxo-2-thioxo-3,4-dihydropyrimidin-1(2H)-yl)acet amide, reference compound]
